Ab-14 heavy chain CDR variants: yeast mating affinities

Target: peptide PDVDLGDISGINAS, taken from heptad repeat 2 (HR2) of SARS-CoV-2 spike.

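The parent was found by panning a naive human phage display library on the peptide. In library AAYL49, one, two or three CDR residues were substituted; doubles and triples were drawn at random. The scFvs were displayed on barcoded MATa yeast, the peptide on MATalpha yeast. The frequency of each diploid, read from paired DNA barcodes, reflects how well the two displayed proteins bind. Each replicate has its own calibration line, from reference interactions of the BCL2 family. The assay was run in three technical replicates.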

Ab-14 is the parent antibody, in scFv form: VH, then three GGGGS repeats, then VL. The light chain is unchanged in all variants.
VH: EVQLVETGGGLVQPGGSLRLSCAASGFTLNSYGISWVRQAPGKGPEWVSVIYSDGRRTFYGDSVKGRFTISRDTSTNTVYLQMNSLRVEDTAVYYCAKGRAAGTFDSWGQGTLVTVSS
VL: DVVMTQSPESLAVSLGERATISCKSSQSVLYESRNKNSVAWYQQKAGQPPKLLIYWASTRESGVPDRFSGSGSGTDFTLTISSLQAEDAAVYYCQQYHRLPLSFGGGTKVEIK

Changes read parent residue, position, new residue, counted from the first residue of the VH shown. Kd is apparent (estimated from mating counts) and averaged on the log scale over replicates with a signal. Smaller is tighter. Where no diploid with the target was found in any replicate, the entry reads "nd": below detection, most likely a poor binder, though not proof of it. Nonspecific signal, from three strains lacking the peptide, appeared in 15% of pairings of library AAYL49, centred on 11 µM (5% of these signals below 680 nM); values are not corrected for it. For reference, the parent read 4.4 nM as the reference entry and 13 µM (one replicate of three) as a member of this library.

| changes | Kd (apparent) | replicates with signal |
|---|---|---|
| I34Q S63W G103N | nd | 0/3 |
| Y32F I51P G61R | nd | 0/3 |
| G55Q K65N R100T | 14 µM | 1/3 |
| L29K R56A K65H | nd | 0/3 |
| S35M V50N D62M | 6.0 µM | 1/3 |
| Y32W F59A F105K | 7.9 µM | 1/3 |
| V50T I51P D62R | nd | 0/3 |
| L29A Y32C | 69 µM | 3/3 |
| G33H V50E F59M | nd | 0/3 |
| T58W G61F D62S | 6.4 µM | 1/3 |
| Y32I D106R | nd | 0/3 |
| Y60C D62W T104C | 1.3 µM | 2/3 |
| Y60V F105R | 2.2 µM | 3/3 |
| F27G G33M V50D | nd | 0/3 |
| Y52M A101S S107K | nd | 0/3 |
| D62K G99K A101F | nd | 0/3 |
| Y32E F59L G103S | nd | 0/3 |
| T104N F105W | nd | 0/3 |
| I34N G55K A102C | nd | 0/3 |
| V50Y S53P F105H | 3.7 µM | 2/3 |
| I51P D54F T58E | nd | 0/3 |
| Y32F R56A F105Y | 340 nM | 3/3 |
| S35D Y60R V64K | nd | 0/3 |
| V50R R56P F59R | nd | 0/3 |
| Y52G A101I | 1.7 µM | 2/3 |
| L29I G61T R100D | 2.8 nM | 3/3 |
| I51Y S53P R100Q | nd | 0/3 |
| D54C F59T V64W | 67 µM | 1/3 |
| G55Q R56P S63F | nd | 0/3 |
| S35A G55K G61F | 65 µM | 3/3 |
| Y32M T58W K65V | nd | 0/3 |
| T28M Y32M F105K | 13 µM | 1/3 |
| S31Y A101V T104N | 75 nM | 3/3 |
| G26S A102T F105Q | 450 nM | 3/3 |
| S63F G99K S107G | nd | 0/3 |
| G33P A102P | nd | 0/3 |
| G26T I51K R100M | 550 µM | 2/3 |
| G33P V50E Y52A | 13 µM | 2/3 |
| F27P Y32H D106A | nd | 0/3 |
| D54Q R56D A102Y | nd | 0/3 |
| G26F K65Q R100Q | 1.7 µM | 2/3 |
| Y52P G55R Y60C | 13 µM | 1/3 |
| T28V Y32S G33H | nd | 0/3 |
| Y52M F59K Y60S | nd | 0/3 |
| G33K A102L F105E | nd | 0/3 |
| Y32T Y60L | 920 nM | 1/3 |
| Y32D S53P D106H | nd | 0/3 |
| F27H Y32G I51D | 34 µM | 2/3 |
| K65W G103I T104R | nd | 0/3 |
| T58N K65N G99L | nd | 0/3 |
| I51F Y52C | nd | 0/3 |
| G26Y F27T G99L | 6.0 µM | 1/3 |
| I34N D54F R100C | nd | 0/3 |
| G55A Y60C A102R | nd | 0/3 |
| Y60N A101F G103H | nd | 0/3 |
| T28L N30K R56S | 280 nM | 3/3 |
| I51W R56N | nd | 0/3 |
| S35R F105K D106E | nd | 0/3 |

Values reported by Engelhart et al. 2022, doi:10.1038/s41597-022-01779-4 (FLAb copy).